Measurements as given in ChEMBL document CHEMBL1136402, “Characterization of HERG potassium channel inhibition using CoMSiA 3D QSAR and homology modeling approaches” (Bioorg Med Chem Lett, 2003).

Amino acid sequences for entries named in this document (tags omitted). A change or cut given only in a name is not applied to a line headed by its entry.
UniProt Q12809: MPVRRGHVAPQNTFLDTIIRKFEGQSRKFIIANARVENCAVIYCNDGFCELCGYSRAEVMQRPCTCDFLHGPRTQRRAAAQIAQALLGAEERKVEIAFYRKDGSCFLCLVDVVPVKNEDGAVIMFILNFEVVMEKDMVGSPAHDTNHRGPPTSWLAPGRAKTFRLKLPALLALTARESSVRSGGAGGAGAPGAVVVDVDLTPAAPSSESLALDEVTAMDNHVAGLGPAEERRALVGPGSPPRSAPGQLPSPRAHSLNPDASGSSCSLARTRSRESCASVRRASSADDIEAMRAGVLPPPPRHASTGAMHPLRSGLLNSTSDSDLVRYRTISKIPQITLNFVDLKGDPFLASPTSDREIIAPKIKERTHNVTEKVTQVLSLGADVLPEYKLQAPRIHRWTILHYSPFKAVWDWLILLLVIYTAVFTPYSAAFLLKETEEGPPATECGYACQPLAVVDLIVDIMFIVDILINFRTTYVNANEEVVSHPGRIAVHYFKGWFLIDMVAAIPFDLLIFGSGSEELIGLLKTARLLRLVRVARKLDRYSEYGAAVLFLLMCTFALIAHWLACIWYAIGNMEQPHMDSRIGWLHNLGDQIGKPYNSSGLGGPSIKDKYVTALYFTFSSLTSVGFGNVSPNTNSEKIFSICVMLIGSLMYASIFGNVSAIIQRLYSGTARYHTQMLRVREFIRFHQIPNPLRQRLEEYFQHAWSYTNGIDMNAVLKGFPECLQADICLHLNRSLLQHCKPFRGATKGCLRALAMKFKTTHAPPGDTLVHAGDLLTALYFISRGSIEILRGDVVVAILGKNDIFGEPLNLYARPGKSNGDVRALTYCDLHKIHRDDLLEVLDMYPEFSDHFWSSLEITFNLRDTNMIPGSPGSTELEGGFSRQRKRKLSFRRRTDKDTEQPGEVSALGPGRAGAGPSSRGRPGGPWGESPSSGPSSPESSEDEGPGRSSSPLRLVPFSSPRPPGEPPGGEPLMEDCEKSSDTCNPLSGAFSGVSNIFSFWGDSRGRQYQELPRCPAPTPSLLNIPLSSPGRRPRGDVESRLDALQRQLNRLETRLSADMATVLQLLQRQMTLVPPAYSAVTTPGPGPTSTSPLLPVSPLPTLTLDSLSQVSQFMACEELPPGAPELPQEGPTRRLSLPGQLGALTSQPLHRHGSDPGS

Target: Voltage-gated inwardly rectifying potassium channel KCNH2 (Homo sapiens, UniProt Q12809)
Assay: Inhibition of K+ channel activity in CHO cells expressing HERG Kv11.1

CCC(CC)c1cn(-c2ccc(F)cc2)c2ccc(Cl)cc12
IC50: 1480 nM
